The results in this text go back to ChEMBL document CHEMBL4261495, “Antitrypanosomal and antileishmanial activity of prenyl-1,2,3-triazoles” (Medchemcomm, 2017).

This series in a line: Octanol/water partition coefficient, log P of the compound. The series is classed as physicochemical.

What is called logP is a log measure of how a compound divides between an organic and an aqueous phase.

The molecule `C[C@@H]1[C@H](O)[C@@H](C)/C=C/C=C/C=C/C=C/C=C/C=C/C=C/[C@H](O[C@@H]2O[C@H](C)[C@@H](O)[C@H](N)[C@@H]2O)C[C@@H]2O[C@](O)(C[C@@H](O)C[C@@H](O)[C@H](O)CC[C@@H](O)C[C@@H](O)CC(=O)O[C@H]1C)C[C@H](O)[C@H]2C(=O)O` came in with a logP of -2.49.
